# Assay results as given in patent US20180298024A1, “CORTISTATIN ANALOGS AND USES THEREOF” (President and Fellows of Harvard College, priority 2015, published 2018).
# Protein sequences, listed by entry. Tags and fused reporters are not part of them. Lines headed by an entry give the natural chain unless they say otherwise; changes in a name come on top.
# UniProt Q12809: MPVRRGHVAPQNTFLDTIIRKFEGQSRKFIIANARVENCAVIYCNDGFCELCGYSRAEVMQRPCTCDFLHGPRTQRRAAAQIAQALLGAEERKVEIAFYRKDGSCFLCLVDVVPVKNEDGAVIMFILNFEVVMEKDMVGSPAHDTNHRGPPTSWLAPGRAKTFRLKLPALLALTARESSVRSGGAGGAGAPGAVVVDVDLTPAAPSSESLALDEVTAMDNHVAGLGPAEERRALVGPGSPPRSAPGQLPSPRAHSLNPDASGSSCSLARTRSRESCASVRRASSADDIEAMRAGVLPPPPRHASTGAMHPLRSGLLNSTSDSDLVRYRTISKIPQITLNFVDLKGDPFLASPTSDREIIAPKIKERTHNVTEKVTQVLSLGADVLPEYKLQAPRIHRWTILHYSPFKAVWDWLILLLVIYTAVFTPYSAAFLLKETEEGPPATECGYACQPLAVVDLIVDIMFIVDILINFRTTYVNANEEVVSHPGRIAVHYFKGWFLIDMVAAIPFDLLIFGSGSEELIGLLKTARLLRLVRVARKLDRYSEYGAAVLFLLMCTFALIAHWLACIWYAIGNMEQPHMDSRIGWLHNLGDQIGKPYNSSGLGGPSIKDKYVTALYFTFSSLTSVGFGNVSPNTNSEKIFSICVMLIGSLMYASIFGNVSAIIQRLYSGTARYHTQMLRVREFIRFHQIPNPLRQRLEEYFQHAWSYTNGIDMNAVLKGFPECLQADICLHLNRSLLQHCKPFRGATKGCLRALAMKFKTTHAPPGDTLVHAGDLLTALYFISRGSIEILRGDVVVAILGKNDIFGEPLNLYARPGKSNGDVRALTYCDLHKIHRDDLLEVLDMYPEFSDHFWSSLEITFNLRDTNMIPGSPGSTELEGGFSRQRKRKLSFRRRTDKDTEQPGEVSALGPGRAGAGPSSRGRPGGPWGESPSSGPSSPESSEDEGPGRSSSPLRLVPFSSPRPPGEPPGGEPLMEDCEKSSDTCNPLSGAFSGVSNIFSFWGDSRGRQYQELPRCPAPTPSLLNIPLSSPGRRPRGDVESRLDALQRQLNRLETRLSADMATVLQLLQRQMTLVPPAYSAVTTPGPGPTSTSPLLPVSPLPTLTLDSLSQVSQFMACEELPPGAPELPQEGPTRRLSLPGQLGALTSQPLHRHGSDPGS
# Target: hERG potassium channel (Homo sapiens, UniProt Q12809)
# Experiment: in vitro
# Conditions: Mean % hERG Inhibition
# Method: The in vitro effects of compounds A, B, C, D, E, and F on the hERG (human ether-à-go-go-related gene) potassium channel current (a surrogate for IKr, the rapidly activating, delayed rectifier cardiac potassium current) expressed in mammalian cells were evaluated at room temperature using the QPatch HT (Sophion Bioscience A/S, Denmark), an automatic parallel patch clamp system. The test articles were evaluated at 1 μM, 3 μM, […] and 30 μM. Each test article concentration was tested in at least three cells. The duration of exposure to each test article concentration was a minimum of 3 minutes.
smiles,measurement,value
"COc1cc(N)c(Cl)cc1C(=O)NC1CCN(CCCOc2ccc(F)cc2)CC1OC (stereo not shown) [Cisapride, reference compound]",inhibition at 0.05 µM,72.7%
